System: myelinated axons in neuronal cell cultures differentiated from ES-D3 cells
Details: up to two weeks of growth in normal culture medium after demyelination by hexachlorophene
Description: Monitoring of metabolic activity (CellTiter 96® AQueous One; Promega) is used to identify concentrations that caused a minimum amount of damage to the oligodendrocytes and neurons. In this assay a tetrazolium compound (MTS) and an electron coupling reagent (phenazine ethosulfate) are used for calorimetric detection of metabolic activity. MTS is bioreduced, presumably by NADPH or NADH, into a colored formazan product that is soluble in tissue culture medium and can be detected spectrophotometrically. Absorbance at about […] is proportional to metabolic activity and is commonly used to monitor the number of living cells in culture.

Oc1c(Cl)cc(Cl)c(Cl)c1Cc1c(O)c(Cl)cc(Cl)c1Cl [hexachlorophene]
spontaneous remyelination (transmission electron microscopy): No significant spontaneous remyelination was observed

From patent US20100069254A1, “Cell Culture Model for Demyelination/Remyelination” (priority 2008, published 2010)
